These are literature values, as cited in patent publication US6333348A, “Use of docetaxel for treating cancers” (Aventis Pharma S.A., priority 2000, dated 2001).

In data set [1] the test system is HER2/neu overexpressing human breast cancer xenografts. Particulars: preclinical animal models; cited from earlier work.
Data set [2] has as its system cancers that express HER2. The note with it: rhuMAb HER2 administered alone; first published study; cited from earlier work.
The conditions of data set [3]: rhuMAb HER2 alone; cited from earlier work.
Data set [4] deals with cancers that express HER2. Particulars: 4 mg/kg loading dose, then 2 mg/kg weekly; alone; cited from earlier work.

For “rhuMAb HER2: recombinant humanized anti-HER2 antibody; active ingredient of HERCEPTIN® or else HERCEPTIN® itself”, in data set [1], the “enhancement of antitumor activity of chemotherapeutic agents” value is recorded as “enhances the antitumor activity of chemotherapeutic agents”. For the same substance, in data set [2], the “overall objective response rate” value is listed as 11.6%. In addition, in data set [3], the cardiac dysfunction entry is recorded as “associated with cardiac dysfunction”; the “neutropenia, alopecia and mucositis” value is recorded as “rarely caused”. Further, in data set [4], the “complete responses (number)” value is recorded as “eight”, the “complete responses (rate)” value was 4%, the “partial responses (number)” value was 26 partial responses and the “partial responses (rate)” value is listed as 11%.
